In ChEMBL document CHEMBL3826914, “Selective photodepletion of malignant T cells in extracorporeal photopheresis with selenorhodamine photosensitizers” (Bioorg Med Chem, 2016):

Test: Inhibition of P-glycoprotein (unknown origin)
Set-up: species or system Homo sapiens

**Q.** For `O[C@@H](COc1cccc2ncccc12)CN1CCN([C@@H]2c3ccccc3[C@@H]3[C@H](c4ccccc42)C3(Cl)Cl)CC1`, which IC50 is on record?
**A.** The IC50 was 400 nM.
